Test results as given in ChEMBL document CHEMBL1151445, “Molecular epidemiology and mechanisms of carbapenem resistance in Pseudomonas aeruginosa isolates from Spanish hospitals” (2007).

System: Escherichia coli
Details: XL1-Blue

## GENTAMICIN
  MIC: 0.5 µg/mL
